Our source for the IC50 values is ChEMBL document CHEMBL5042533, “Structural Optimization and Structure-Activity Relationship Studies of 6,6-Dimethyl-4-(phenylamino)-6H-pyrimido[5,4-b][1,4]oxazin-7(8H)-one Derivatives as A New Class of Potent Inhibitors of Pan-Trk and Their Drug-Resistant Mutants” (J Med Chem, 2022).

Experiment [1] concerns BaF3. Put plainly: cells. The note with it: Mus musculus, BaF3, 72 h.
The test system of experiment [2] is BaF3. The experiment can be described thus: cells. The note with it: Mus musculus, BaF3, 72 h. The source holds these as a separate data set.

In the experiment with BaF3 [1], `Cc1cc(NC(=O)Nc2cc(C(C)(C)C)nn2-c2ccccc2)ccc1Nc1ncnc2c1OC(C)(C)C(=O)N2` returned an IC50 of 3 nM. This lies in the single-digit nanomolar range.
As for `Cc1cc(NC(=O)Nc2cc(C(C)(C)C)nn2-c2ccc(C(F)(F)F)cc2)ccc1Nc1ncnc2c1OC(C)(C)C(=O)N2`, the IC50 with BaF3 [2] amounted to 30 nM.
